Test system: HeLa cells
Experiment: LDH cytotoxicity assay

`O=C1CN(C(=O)c2nccs2)C(c2ccccc2)c2cc(Cl)ccc2N1` (stereo not shown) was tested, and the CC50 was greater than 400 µM.
